High-throughput results (PubChem BioAssay)
Hits are enriched below; roughly 16% of the tested compounds scored in any of these assays.
TDP1 inh: blocks human tyrosyl-DNA phosphodiesterase 1. Potency, µM (series often up to 130 µM), usual class: inhibitors. recombinant TDP1, AlphaScreen DNA substrate cleavage. Q9NUW8. AID 485290. 350,000 compounds, 0.28% hits; note: nearly all actives have a fitted effect of over 40% in size
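E. coli-derived human Tdp1, 1 nM final. Cpd preinc 15 min RT; substrate 15 nM final, 5 min RT; AS bead mix 10 ug/ml final, 10 min RT. Signal loss = tyrosine-FITC cleavage. No-enzyme wells = max signal.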
DT40 TDP1 no CPT: qHTS for Inhibitors of human tyrosyl-DNA phosphodiesterase 1 (TDP1): qHTS in cells in absence of CPT; DT40 Tdp1-/- hTDP1 cells, no CPT, ATP luminescence, 48 h; Potency, µM (doses to about 46.2 µM), hits mostly inhibitors; 420,000 compounds, 15% hits; note: nearly all actives have a fitted effect of over 55% in size
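Stably hTDP1-transfected Tdp1-null chicken DT40 cells were treated with library compounds minus camptothecin and grown for at least 48 hr at 37 °C, after which cellular ATP was quantified by luminescence.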
TDP1 cell CPT: growth inhibition of DT40 Tdp1-/-;hTDP1 cells with camptothecin (screen for TDP1 inhibitors); chicken DT40 Tdp1-/-;hTDP1 cells + 20 nM CPT, ATP luminescence, 48 h; Potency, µM (doses to about 46.2 µM), hits mostly inhibitors; 420,000 compounds, 12% hits; note: nearly all actives have a fitted effect of over 55% in size
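Chicken DT40 Tdp1-/- cells stably complemented with human TDP1 were seeded at 400 cells/well in medium containing 20 nM camptothecin, exposed to pin-transferred compounds, and grown at 37 °C for at least 48 hr. Viability was read as ATP luminescence.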
miR-21 reporter: raises the signal of a miR-21 reporter | HeLa miR-21 FLuc reporter, luciferase, 48 h | Potency, µM (doses to about 38.3 µM) | 340,000 tested, under 10 active | AID 2288; active = well fitted rising curve with a large enough effect; inconclusive = small, poorly fitted or top-dose-only effect; inactive = no such curve, though single readings can be large or run the other way;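 also: miR-21 action dims this reporter so a rising signal means less miR-21 action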
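Using DMEM plus 10% FBS, HeLa miR-21-FLuc cells are incubated with test compounds (final up to about 40uM) for 48 hours; firefly luciferase signal is then imaged following reagent-mediated lysis.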
uPA surface inh: blocks generation of uPA at the cell surface; 330,000 compounds, 0.31% hits; Potency, µM (top dose mostly 38.3 µM), actives largely listed as inhibitors; cell surface uPA generation assay, qHTS; AID 540303; active = well fitted inhibition curve with a large enough effect; inconclusive = small, poorly fitted or top-dose-only effect; inactive = no such curve, though single readings can be large or run the other way; tested in mouse RAW 264.7 cells; note: nearly all actives have a fitted effect of over 55% in size
A number is an active result. Unless noted, calls come from the whole dose curve; as a rule, active = well fitted curve in the direction sought with a large enough effect; inconclusive = small, poorly fitted or top-dose-only effect, or another doubt; inactive = no such curve, though single readings can be large; an effect the other way counts as inactive or inconclusive.

Screening Cc1nn(C)c(C)c1S(=O)(=O)N1CCCC(C(=O)NC2CCCCCC2)C1 (stereo not given) returned TDP1 inh inactive, DT40 TDP1 no CPT inconclusive, TDP1 cell CPT 18µM, miR-21 reporter inactive and uPA surface inh inactive.
Screening CC(C)c1ccc(C2(C)NC(=O)N(CC(=O)NC3(C#N)CCCC3)C2=O)cc1 (stereo not given) returned TDP1 inh inactive, DT40 TDP1 no CPT inactive, TDP1 cell CPT inconclusive and uPA surface inh inactive.
COC(=O)[C@]12CCCCC=C1N(Cc1cccc3ccccc13)C(=O)[C@H](CC(=O)NCC1CCCCC1)C2 was read as DT40 TDP1 no CPT 18µM and TDP1 cell CPT inconclusive.
`CCOC(=O)[C@]12CCC=C1N(Cc1cccc3ccccc13)C(=O)[C@H](CC(=O)NCC1CCCCC1)C2` gave DT40 TDP1 no CPT 21µM and TDP1 cell CPT 23µM.
For COC(=O)[C@]12CCCCC=C1N(Cc1cccc3ccccc13)C(=O)[C@H](CC(=O)NCCC(C)C)C2 the results were DT40 TDP1 no CPT 15µM and TDP1 cell CPT 18µM.
Screening CCOC(=O)[C@]12CCCC=C1N(Cc1ccc(Cl)cc1Cl)C(=O)[C@H](CC(=O)NCc1cccc3ccccc13)C2 returned DT40 TDP1 no CPT 16µM and TDP1 cell CPT 26µM.
Cc1ccc(C23CC4CC(CC(C(=O)OCC(=O)N(C)C)(C4)C2)C3)cc1 was read as DT40 TDP1 no CPT inactive, TDP1 cell CPT inconclusive, miR-21 reporter inactive and uPA surface inh inactive.
For O=C(CSc1nnc(-c2ccc(F)cc2)c2ccccc12)NCC1CCCO1 (stereo not given) the results were DT40 TDP1 no CPT inactive, TDP1 cell CPT inactive, miR-21 reporter inactive and uPA surface inh inactive.
For COC(=O)C(NNc1ccccc1)(NC(=O)c1ccccc1F)C(F)(F)F (stereo not given) the results were TDP1 inh inactive, DT40 TDP1 no CPT inconclusive, TDP1 cell CPT inactive, miR-21 reporter inactive and uPA surface inh inactive.
`CCOC(=O)[C@]12CCCC=C1N(Cc1ccccc1)C(=O)[C@H](CC(=O)NCCc1ccccc1OC)C2` gave DT40 TDP1 no CPT 13µM and TDP1 cell CPT inconclusive.
For COC(=O)[C@]12CCCCC=C1N(Cc1cccc3ccccc13)C(=O)[C@H](CC(=O)NCc1ccccc1)C2 the results were DT40 TDP1 no CPT 18µM and TDP1 cell CPT inconclusive.
C#CCNC(=O)C[C@@H]1C[C@@]2(C(=O)OC)CCCCC=C2N(Cc2ccccc2)C1=O was read as DT40 TDP1 no CPT inactive and TDP1 cell CPT inactive.
Screening CCOC(=O)[C@]12CCCC=C1N(Cc1ccccc1)C(=O)[C@H](CC(=O)NCc1cccc3ccccc13)C2 returned DT40 TDP1 no CPT inactive and TDP1 cell CPT 18µM.
Screening COC(=O)[C@]12CCCCC=C1N(Cc1ccccc1)C(=O)[C@H](CC(=O)NCc1cccc3ccccc13)C2 returned DT40 TDP1 no CPT 18µM and TDP1 cell CPT inconclusive.
For Cc1ccc(S(=O)(=O)Nc2cccc(C(=O)NCCCN3CCCC3=O)c2)cc1F the results were TDP1 inh inactive, DT40 TDP1 no CPT inconclusive, TDP1 cell CPT inactive and uPA surface inh inactive.
For Cc1ccccc1-c1cnc(C(O)c2ccc(Cl)c(F)c2)[nH]1 (stereo not given) the results were DT40 TDP1 no CPT inactive and TDP1 cell CPT 29µM.
Screening Cc1ccccc1-c1cnc(C(O)c2ccc(F)c(F)c2)[nH]1 (stereo not given) returned DT40 TDP1 no CPT inactive and TDP1 cell CPT inactive.
`OC(c1ccc(Cl)c(F)c1)c1ncc(-c2ccccc2F)[nH]1` (stereo not given) gave DT40 TDP1 no CPT inconclusive and TDP1 cell CPT 16µM.
N/C(=N\OC(=O)CCC1CCCC1)c1ccc([N+](=O)[O-])cc1 was read as TDP1 inh inactive, DT40 TDP1 no CPT inactive, TDP1 cell CPT inactive, miR-21 reporter inactive and uPA surface inh inactive.
Screening COc1ccc(NC(=O)CN(C)CC(=O)N(CC(C)C)c2c(N)n(CC(C)C)c(=O)[nH]c2=O)cc1 returned TDP1 inh inactive, DT40 TDP1 no CPT inactive, TDP1 cell CPT inactive and uPA surface inh inactive.
Screening O=C(Nc1cc(S(=O)(=O)N2CCCCC2)ccc1Cl)c1ccc(F)cc1 returned TDP1 inh inactive, DT40 TDP1 no CPT inactive, TDP1 cell CPT inactive and uPA surface inh inactive.
`CCCC(=O)N1CC(=O)Nc2ccc(C)cc2C1c1ccc(F)cc1` (stereo not given) gave DT40 TDP1 no CPT inactive, TDP1 cell CPT inactive, miR-21 reporter inactive and uPA surface inh inactive.
`O=C1CN(C(=O)COc2ccc(Cl)cc2Cl)C(c2ccccc2)c2cc(F)ccc2N1` (stereo not given) gave TDP1 inh inactive, DT40 TDP1 no CPT inconclusive, TDP1 cell CPT 16µM and miR-21 reporter inconclusive.
CCCCC(=O)N1CC(=O)Nc2ccc(F)cc2C1c1ccccc1 (stereo not given) was read as DT40 TDP1 no CPT inactive, TDP1 cell CPT inactive, miR-21 reporter inactive and uPA surface inh inactive.
Screening Cc1ccc2c(c1)C(c1ccc(F)cc1)N(C(=O)COc1ccc(Cl)cc1Cl)CC(=O)N2 (stereo not given) returned TDP1 inh inactive, DT40 TDP1 no CPT inconclusive, TDP1 cell CPT 21µM and miR-21 reporter inconclusive.
`O=C1CN(C(=O)COc2ccc(Cl)cc2Cl)C(c2ccc(F)cc2)c2cc(F)ccc2N1` (stereo not given) gave TDP1 inh inactive, DT40 TDP1 no CPT inconclusive, TDP1 cell CPT 21µM and miR-21 reporter inconclusive.
CCC(=O)N1CCN=C1SCc1cccc(F)c1 was read as TDP1 inh inactive, DT40 TDP1 no CPT inconclusive, TDP1 cell CPT inactive, miR-21 reporter inactive and uPA surface inh inactive.
Cc1ccc(C(C(=O)NC2CCCCC2)N(CCCN2CCOCC2)C(=O)c2snc(C(N)=O)c2N)cc1 (stereo not given) was read as TDP1 inh inactive, DT40 TDP1 no CPT inactive, TDP1 cell CPT inactive, miR-21 reporter inactive and uPA surface inh inactive.
`COc1ccccc1-c1csc(C(O)c2cccc(Cl)c2)n1` (stereo not given) gave DT40 TDP1 no CPT inconclusive and TDP1 cell CPT 21µM.
COc1cc(F)ccc1-c1csc(C(O)c2ccc(F)c(F)c2)n1 (stereo not given) was read as DT40 TDP1 no CPT 13µM and TDP1 cell CPT inconclusive.
Screening COc1ccccc1-c1csc(C(O)c2ccccc2)n1 (stereo not given) returned DT40 TDP1 no CPT inconclusive and TDP1 cell CPT 23µM.
Screening COc1ccccc1-c1csc(C(NC(C)=O)c2cccc(F)c2)n1 (stereo not given) returned DT40 TDP1 no CPT inconclusive and TDP1 cell CPT inactive.
